Literature values, collected in PMC10866537.

Protein sequences, listed by entry. Tags and fused reporters are not part of them. Residues count along the entry.
UniProt P42081, 24-247: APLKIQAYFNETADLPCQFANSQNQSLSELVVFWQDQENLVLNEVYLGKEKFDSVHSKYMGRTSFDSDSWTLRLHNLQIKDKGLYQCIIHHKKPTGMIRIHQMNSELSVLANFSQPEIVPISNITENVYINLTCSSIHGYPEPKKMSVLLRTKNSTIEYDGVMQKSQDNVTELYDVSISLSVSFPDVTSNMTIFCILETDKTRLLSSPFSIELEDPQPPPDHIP

Assays:
CD86 (Homo sapiens) = CD86 (Homo sapiens) (UniProt P42081); conditions: cited from earlier work
CD80 (Homo sapiens) = CD80 (Homo sapiens) (UniProt P33681); conditions: cited from earlier work

## CTLA4 (from UniProt P16410)
CD86 (Homo sapiens)
  Kd: 2.6 µM
CD80 (Homo sapiens)
  Kd: 0.2 µM
